Measurements as given in US12139488B2, “Pyrido[3,2-d]pyrimidine compounds uses thereof for treating a proliferative disease” (Universite de Montreal, priority 2021, dated 2024).

How the values were obtained:
[1] = tested on: pERK in IPC298 cells (NRAS-Q61L); assay: Phospho-ERK inhibition (AlphaLISA), IPC298; settings: for IPC298 pERK % Ymin: IPC298, value in parentheses; for IC50: read-out: IPC298 pERK IC50, IPC298
Procedure: (§1) All cancer cell lines (A375, A101D, A2058, RKO, HT29 SK-MEL 30, IPC298, HepG2, HCT-116, Lovo, SWV620, SW480, NCI-H358, NCI-H2122, Calu-6, NCIH2087, NCIH1755, NCIH1666 and Mewo) were obtained from ATCC and cultured in RPMI-1640 medium (Gibco) supplemented with 5% heat inactivated fetal bovine serum (FBS, Wisent) at 37° C. under 5% CO2. Cells were maintained in T175 flasks (Greiner). They were passaged by removing the culture medium, washing once in 10 mL of room temperature Phosphate Buffered Saline (PBS; Wisent) and incubating at 37° C. with 2 mL of 0.05% Trypsin (Thermo-Fisher). Trypsin was then inactivated by adding complete growth medium and the cells were then replated in a T175 culture dish at the appropriate dilution. All cell lines were routinely tested for mycoplasma contamination. Tissue type and mutational status of each cell line can be found in Table B.
(§2) AlphaLISA® SureFire® Ultra™ p-ERK 1/2 (Thr202/Tyr204) analysis was conducted on cells plated in 100 μL of complete RPMI-1640 growth medium in 96-well flat-bottomed transparent dishes (Costar) at a density indicated in Table C. Cells were maintained overnight at 37° C. under 5% CO2 before treatment with compounds' dilution series for one hour. The cell density in cells/cm^2 corresponds to cell number divided by the area of one well of a 96-well plate ([…]).
(§3) In a dilution series 100 μL/well of test substance dilution prepared in complete RPMI-1640 growth media was added to the cells. The dilution series is selected so that ten concentrations cover a range from 10 μM to 0.33 nM. If necessary the initial concentration of 10 μM is increased to 100 μM or lowered to 1 μM (as in the case of A375 and H1666 cells, which are generally more sensitive to the compounds) and further dilution is carried out accordingly. The final concentration of DMSO in the assay is set at 0.5%.
(§4) After treatment, media was removed and cells were lysed in 50 μL of 1× AlphaScreen Ultra Lysis Buffer (Perkin Elmer). The AlphaLISA® SureFire® Ultra™ p-ERK 1/2 (Thr202/Tyr2O4) (PerkinElmer) reactions were performed with 5 μL of cell lysate according to the manufacturer's specifications in 384-well proxyplates (Perkin Elmer) followed by overnight incubation of the reactions at room temperature in a humidified chamber. After completion of the reactions, the signals were recorded on an EnVision plate reader (Perkin Elmer) using built in AlphaLISA® settings.
(§5) The effect of each compound dilution on the pERK signal was expressed in % inhibition and calculated as follows. An internal 100% inhibition control (1 M trametinib, cat #HY-10999; MedChem Express; CAS #871700-17-3) was included in each plate and used as a measure of pERK background. First, the value obtained for trametinib was subtracted from each data point. The average of DMSO (vehicle) controls (set as 0% inhibition) was established and used to calculate % inhibition: % inhibition=100*(1-((pERK signalcompound)/(pERK signalDMSO)))
(§6) The ability of each compound to inhibit pERK signal was expressed as an IC50 value obtained by plotting the inhibition values for each data point of a dilution series and fitting the obtained curves using a log(agonist) versus response-variable slope (four parameters) function using GraphPadPrism (V7.0) or Dotmatics Screening Ultra platform.
(§7) When present, paradoxical pERK induction is inferred from the negative % inhibition values observed in the pERK IC50 curves of a compound.

[2] = tested on: pERK in Lovo cells (KRAS-G13D); assay: Phospho-ERK inhibition (AlphaLISA), Lovo; settings: for IC50: read-out: Lovo pERK IC50; for Lovo pERK % Ymin: value in parentheses
Procedure: as §1, §2, §3, §4, §5, §6, §7

[3] = tested on: pERK in NCIH2087 cells (BRAF L597V; KRAS Q61K); assay: Phospho-ERK inhibition (AlphaLISA), NCIH2087; settings: for NCIH2087 pERK % Ymin: NCIH2087, value in parentheses; for IC50: read-out: NCIH2087 pERK IC50, NCIH2087
Procedure: as §1, §2, §3, §4, §5, §6, §7

HT29 cells (BRAF V600E) = assay: Proliferation inhibition (CellTiter-Glo), HT29; settings: read-out: HT-29 Prolif. EC50; HT-29, 3 days
Procedure: as §1
(§8) CellTiter-Glo® viability analysis was conducted on cells plated in 100 μL of complete RPMI-1640 growth medium in 96-well flat-bottomed white opaque plates (Greiner or Croning) at a density indicated in Table E (for each CCL, number of cells plated per well of a 96-well plate to perform the CellTiter-Glo® cell viability assay). The cell density in cells/cm^2 would correspond to cell number divided by the area of one well of a 96-well plate (0.32 cm^2). Cells were maintained overnight at 37° C. under 5% CO2 before treatment with compounds' dilution series for 3 days.
(§9) In a dilution series 100 μL/well of test substance dilution prepared in complete RPMI-1640 growth media was added to the cells plated initially in 100 μL of growth media. The dilution series is selected so that ten concentrations cover a range from 10 μM to 0.33 nM. If necessary (as in the case of A375 cells, which were more sensitive to the compounds) the initial concentration of 10 μM is lowered to 1 μM and further dilution is carried out accordingly. The final concentration of DMSO in the assay is set at is 0.5%.
(§10) After 3 days of incubation, the growth media were removed by aspiration and 60 μL of diluted CellTiter-Glo® reagent (10 μL CellTiter-Glo® reagent+50 μL of PBS) was added to each well. Cells were allowed to lyse and to equilibrate in CellTiter-Glo® reagent by 5 min incubation on a plate shaker followed by 10 min incubation at room temperature. Luminescence signals were then acquired on a Synergy Neo2 plate reader (Biotek).
as §5, with “proliferation of cancer cell lines” for “pERK signal”, “μM of trametinib;” for “M trametinib,”, “CellTiter-Glo® signal” for “pERK”, “The” for “First, the”, “inhibition=100*(1−((CellTiter-Glo® signalcompound)/(CellTiter-Glo®” for “inhibition=100*(1-((pERK signalcompound)/(pERK”
as §6, with “proliferation” for “pERK signal”, “a EC50” for “an IC50”, “effect” for “inhibition”

Calu-6 cells (KRAS Q61K) = assay: Proliferation inhibition (CellTiter-Glo), Calu-6; settings: read-out: Calu6 Prolif. EC50; Calu6, 3 days
Procedure: as §1, §8, §9, §10
as §5, with “proliferation of cancer cell lines” for “pERK signal”, “μM of trametinib;” for “M trametinib,”, “CellTiter-Glo® signal” for “pERK”, “The” for “First, the”, “inhibition=100*(1−((CellTiter-Glo® signalcompound)/(CellTiter-Glo®” for “inhibition=100*(1-((pERK signalcompound)/(pERK”
as §6, with “proliferation” for “pERK signal”, “a EC50” for “an IC50”, “effect” for “inhibition”

[4] = tested on: NCI-H2122 cells (KRAS-G12C); assay: Proliferation inhibition (CellTiter-Glo), NCI-H2122; settings: read-out: NCI-H2122 Prolif. EC50; NCI-H2122, 3 days
Procedure: as §1, §8, §9, §10
as §5, with “proliferation of cancer cell lines” for “pERK signal”, “μM of trametinib;” for “M trametinib,”, “CellTiter-Glo® signal” for “pERK”, “The” for “First, the”, “inhibition=100*(1−((CellTiter-Glo® signalcompound)/(CellTiter-Glo®” for “inhibition=100*(1-((pERK signalcompound)/(pERK”
as §6, with “proliferation” for “pERK signal”, “a EC50” for “an IC50”, “effect” for “inhibition”

Row | Compound | IC50 [1] [nM] | IC50 [2] [nM] | IC50 [3] [nM] | EC50 (HT29 cells (BRAF V600E)) [nM] | EC50 (Calu-6 cells (KRAS Q61K)) [nM] | EC50 [4] [nM] | IPC298 pERK % Ymin [1] [%] | Lovo pERK % Ymin [2] [%] | NCIH2087 pERK % Ymin [3] [%]
1 | Cc1c(F)cccc1S(=O)(=O)Nc1ccc(F)c(Nc2ncnc3ccc(-n4nc(C(=O)N(C)Cc5cccnc5)c5ccccc54)nc23)c1F | – | – | – | < 30 | < 30 | 300 to 3000 | – | – | –
2 | CS(=O)(=O)C1CCN(c2cccc3c2nnn3-c2ccc3ncnc(Nc4c(F)ccc(NS(=O)(=O)c5cccc(Cl)c5Cl)c4F)c3n2)CC1 | 30 to 300 | < 30 | < 30 | < 30 | 300 to 3000 | 300 to 3000 | 8 | 25 | −10
3 | COc1ccc(S(=O)(=O)Nc2ccc(F)c(Nc3ncnc4ccc(-n5cc(S(=O)(=O)N(C)CCN(C)C)c6ccccc65)nc34)c2F)c(C)c1F | 30 to 300 | 30 to 300 | < 30 | < 30 | < 30 | 300 to 3000 | 17 | 8 | −1
4 | CN(CCN1CCOCC1)S(=O)(=O)c1cn(-c2ccc3ncnc(Nc4c(F)ccc(NS(=O)(=O)c5cccc(Cl)c5Cl)c4F)c3n2)c2ccccc12 | 30 to 300 | 30 to 300 | < 30 | < 30 | < 30 | 300 to 3000 | 11 | 3 | 12
5 | O=S(=O)(Nc1ccc(F)c(Nc2ncnc3ccc(-n4nnc5ccccc54)nc23)c1F)c1cccc(Cl)c1Cl | 30 to 300 | 30 to 300 | < 30 | < 30 | 300 to 3000 | 300 to 3000 | 2 | 10 | 19
6 | COCCOc1cccc2c1nnn2-c1ccc2ncnc(Nc3c(F)ccc(NS(=O)(=O)c4cccc(Cl)c4Cl)c3F)c2n1 | 30 to 300 | 30 to 300 | < 30 | < 30 | 300 to 3000 | 300 to 3000 | 13 | −12 | −2
7 | Cc1c(Cl)csc1S(=O)(=O)Nc1ccc(F)c(Nc2ncnc3ccc(-n4cc(S(=O)(=O)N(C)CCN(C)C)c5ccccc54)nc23)c1F | 30 to 300 | 30 to 300 | < 30 | < 30 | < 30 | 300 to 3000 | −13 | −17 | −5
8 | O=S(=O)(Nc1ccc(F)c(Nc2ncnc3ccc(-n4cnc5c(N6CCC(O)(C(F)(F)F)CC6)cccc54)nc23)c1F)c1cccc(Cl)c1Cl | 30 to 300 | < 30 | < 30 | < 30 | 300 to 3000 | 300 to 3000 | 2 | 25 | −8
9 | Cc1c(Cl)cccc1S(=O)(=O)Nc1ccc(F)c(Nc2ncnc3ccc(-n4cc(C(=O)N5CCN(C)CC5)c5ccccc54)nc23)c1F | 30 to 300 | 30 to 300 | < 30 | < 30 | 300 to 3000 | 300 to 3000 | 29 | 0 | 17

Now from value to molecule, other results behind:

Row | IC50 [1] [nM] | IC50 [2] [nM] | IC50 [3] [nM] | EC50 (HT29 cells (BRAF V600E)) [nM] | EC50 (Calu-6 cells (KRAS Q61K)) [nM] | EC50 [4] [nM] | Compound | IPC298 pERK % Ymin [1] [%] | Lovo pERK % Ymin [2] [%] | NCIH2087 pERK % Ymin [3] [%]
10 | < 30 | 30 to 300 | < 30 | < 30 | 300 to 3000 | 300 to 3000 | O=S(=O)(CCCN1CCOCC1)c1cn(-c2ccc3ncnc(Nc4c(F)ccc(NS(=O)(=O)c5cccc(Cl)c5Cl)c4F)c3n2)c2ccccc12 | 13 | −11 | 14
11 | 30 to 300 | 30 to 300 | < 30 | < 30 | 300 to 3000 | 300 to 3000 | Cc1c(Cl)cccc1S(=O)(=O)Nc1ccc(F)c(Nc2ncnc3ccc(-n4cnc5c(N)cccc54)nc23)c1F | 18 | 17 | 6
12 | 30 to 300 | 30 to 300 | < 30 | < 30 | 300 to 3000 | 300 to 3000 | O=S(=O)(Nc1ccc(F)c(Nc2ncnc3ccc(-n4cnc5c(N6CCC7(CCCC7)CC6)cccc54)nc23)c1F)c1cccc(Cl)c1Cl | 14 | −5 | 11
13 | 30 to 300 | < 30 | < 30 | < 30 | < 30 | 300 to 3000 | CCC1(O)CCN(c2cccc3c2ncn3-c2ccc3ncnc(Nc4c(F)ccc(NS(=O)(=O)c5cccc(Cl)c5Cl)c4F)c3n2)CC1 | 9 | 25 | 5
14 | 30 to 300 | 30 to 300 | 30 to 300 | < 30 | 300 to 3000 | > 3000 | Cc1c(F)cccc1S(=O)(=O)Nc1ccc(F)c(Nc2ncnc3ccc(-n4cnc5c(-c6cccnc6)cccc54)nc23)c1F | 7 | 15 | 2
